Experimental data reported in publication PMC7822067, “Pyridinium-2-carbaldoximes with quinolinium carboxamide moiety are simultaneous reactivators of acetylcholinesterase and butyrylcholinesterase inhibited by nerve agent surrogates” (2021).
pKd: −log10 of the molar value.

What was measured:
hrAChE inhibited by POX = hrAChE inhibited by POX (Homo sapiens, UniProt P22303); experiment: Reactivation screening of POX-inhibited hrAChE; conditions: 15 min
hrAChE inhibited by NIMP = hrAChE inhibited by NIMP (Homo sapiens, UniProt P22303); experiment: Reactivation screening of NIMP-inhibited hrAChE; conditions: 15 min
[1] = molecular target: hrAChE inhibited by NEDPA (Homo sapiens, UniProt P22303); experiment: Reactivation screening of NEDPA-inhibited hrAChE; conditions: 15 min
hrAChE inhibited by NEMP = hrAChE inhibited by NEMP (Homo sapiens, UniProt P22303); experiment: Reactivation screening of NEMP-inhibited hrAChE; conditions: 15 min
NEMP-hrAChE = NEMP-hrAChE (Homo sapiens, UniProt P22303); experiment: Reactivation kinetics of NEMP-hrAChE
NEDPA-hrAChE = NEDPA-hrAChE (Homo sapiens, UniProt P22303); experiment: Reactivation kinetics of NEDPA-hrAChE
NIMP-hrAChE = NIMP-hrAChE (Homo sapiens, UniProt P22303); experiment: Reactivation kinetics of NIMP-hrAChE
POX-hrAChE = POX-hrAChE (Homo sapiens, UniProt P22303); experiment: Reactivation kinetics of POX-hrAChE
[2] = read-out: KD (phosphylated enzyme-oxime dissociation constant)

SMILES | hrAChE reactivation (%) POX ± SD (hrAChE inhibited by POX; oxime 10 µM) [%] | hrAChE reactivation (%) POX ± SD (hrAChE inhibited by POX; oxime 100 µM) [%] | hrAChE reactivation (%) NIMP ± SD (hrAChE inhibited by NIMP; oxime 10 µM) [%] | hrAChE reactivation (%) NIMP ± SD (hrAChE inhibited by NIMP; oxime 100 µM) [%] | hrAChE reactivation (%) NEDPA ± SD ([1]; oxime 10 µM) [%] | hrAChE reactivation (%) NEDPA ± SD ([1]; oxime 100 µM) [%] | hrAChE reactivation (%) NEMP ± SD (hrAChE inhibited by NEMP; oxime 10 µM) [%] | hrAChE reactivation (%) NEMP ± SD (hrAChE inhibited by NEMP; oxime 100 µM) [%] | pKd (NEMP-hrAChE; [2]) | pKd (NEDPA-hrAChE; [2]) | pKd (NIMP-hrAChE; [2]) | pKd (POX-hrAChE; [2]) | kr2 (second-order reactivation rate constant, kr2=kr/KD) (NEMP-hrAChE) [mM^–1 min^–1] | kr (first-order reactivation rate constant) (NEMP-hrAChE) [min^–1] | kr2 (second-order reactivation rate constant, kr2=kr/KD) (NEDPA-hrAChE) [mM^–1 min^–1] | kr (first-order reactivation rate constant) (NEDPA-hrAChE) [min^–1] | kr2 (second-order reactivation rate constant, kr2=kr/KD) (NIMP-hrAChE) [mM^–1 min^–1] | kr (first-order reactivation rate constant) (NIMP-hrAChE) [min^–1] | kr2 (second-order reactivation rate constant, kr2=kr/KD) (POX-hrAChE) [mM^–1 min^–1] | kr (first-order reactivation rate constant) (POX-hrAChE) [min^–1]
NC(=O)c1ccc2ccc[n+](CCCCC[n+]3ccccc3C=NO)c2c1.[Br-].[Br-] | 2.3 ± 0.5 | 3.0 ± 1.1 | 1.4 ± 0.1 | 1.6 ± 0.1 | 1.5 ± 0.5 | 1.7 ± 0.4 | 0.7 ± 0.6 | 1.4 ± 0.1 |  |  |  |  |  |  |  |  |  |  |  | 
NC(=O)c1cc2ccccc2[n+](CCCCC[n+]2ccccc2C=NO)c1.[Br-].[Br-] | 12.4 ± 1.0 | 7.3 ± 0.7 | 7.3 ± 0.77 | 6.1 ± 0.1 | 9.0 ± 0.7 | 5.9 ± 0.3 | 4.3 ± 0.2 | 5.0 ± 0.2 |  |  |  |  |  |  |  |  |  |  |  | 
NC(=O)c1ccc2c(ccc[n+]2CCCCC[n+]2ccccc2C=NO)c1.[Br-].[Br-] | 9.8 ± 1.3 | 4.7 ± 0.7 | 9.9 ± 1.2 | 8.0 ± 0.7 | 9.3 ± 1.1 | 4.7 ± 0.2 | 8.2 ± 0.8 | 5.3 ± 0.4 |  |  |  |  |  |  |  |  |  |  |  | 
NC(=O)c1cc[n+](CCCCC[n+]2ccccc2C=NO)c2ccccc12 |  |  |  |  |  |  |  |  | 4.98 | 4.48 | 5.06 | 5.10 |  |  |  |  |  |  |  | 
NC(=O)c1cccc2c1ccc[n+]2CCCCC[n+]1ccccc1C=NO.[Br-].[Br-] | 6.9 ± 0.9 | 5.6 ± 1.0 | 3.6 ± 0.3 | 4.5 ± 0.1 | 4.0 ± 0.2 | 2.4 ± 0.2 | 1.7 ± 0.6 | 1.7 ± 0.2 |  |  |  |  |  |  |  |  |  |  |  | 
NC(=O)c1cc[n+](CCCCC[n+]2ccccc2C=NO)c2ccccc12.[Br-].[Br-] | 23.2 ± 1.1 | 21.0 ± 2.74 | 14.3 ± 1.0 | 15.8 ± 0.2 | 21.4 ± 1.2 | 13.9 ± 1.0 | 6.2 ± 0.1 | 10.0 ± 0.6 |  |  |  |  | 29.59 | 0.313 | 14.50 | 0.486 | 24.95 | 0.216 | 72.48 | 0.567
